Laboratory results from US20250213703A1, “HUMAN INTERLEUKIN 2-POLYETHYLENE GLYCOL CONJUGATE AND USE THEREOF” (Novocodex Biopharmaceuticals Co., Ltd., priority 2021, published 2025).

Experiments:
[1] = In-vivo pharmacokinetic study in mouse; details: female C57 mice, single intravenous injection 1 mg/kg, serum, average value n=5
[2] = tested on: CD8^+ T cells and CD4^+ Treg cells; assay: Immune cell population in CT26.WT tumor tissue (flow cytometry); format: in vivo, mouse; details: 5th day, 2.0 mg/kg IV QD × 5
Procedure: A cell suspension of 2×10^5/0.1 mL/mouse CT26.WT was subcutaneously inoculated into right backs of the mice. […] On the 5th day, tumor tissue samples of various groups were collected for flow cytometry detection of changes in cell populations of CD8^+ T cells and CD4^+ Treg cells.

CTLL-2 cells = assay: STAT5 phosphorylation assay (CTLL-2 cells); format: cell-based; details: mouse CTLL-2 cells containing IL-2Rαβγ; stimulated 10 minutes at 37° C.; pSTAT5/β-actin western blot
Description: In this method, two cell lines were adopted, wherein mouse CTLL-2 cells were a cell line containing IL-2Rαβγ, and human YT cells were a cell line containing IL-2Rβγ, and rhIL-2 activated the JAK-STAT signal pathway by binding with IL-2R on the cell surface. Different modification sites of various samples had different relative activities to the two kinds of cells. The lower the percentage change of EC50 ratio of YT cells/CTLL-2 cells was, the better the effect of promoting the immune function of the samples was, and on the contrary, the better the effect of inhibiting the immune function was.
The specific process was as follows: the mouse CTLL-2 cells (purchased from American Type Culture Collection) and the human YT cells were cultured in their own media (CTLL-2 cell medium: RPMI 1640+10% FBS+400 IU/mL rhIL-2, 2 mM L-glutamine and 1 mM sodium pyruvate; and YT cell medium: RPMI 1640+10% FBS+1 mm Non-Essential Amino Acids Solution (purchased from Gibco, product catalog number 11140050)) to a sufficient amount at condition of 37° C. and 5% carbon dioxide, and starved for 4 hours before detection, and then the cell density was adjusted to be 1×10^6 cells/mL for later use. […]

## Quanqi rhIL-2: commercial rhIL-2 purchased from Shandong Quangang Pharmaceutical Co., Ltd., positive control drug
[1]
  AUC0-t: 2.445 µg·h/mL
  CL: 0.409 L/h/kg
  Cmax: 6.197 µg/mL
  Tmax: 4.98 min
  Vz: 0.455 L/kg
[2]
  CD8^+ T cells/CD4^+ Treg: 1.3
  Percentage of CD4^+ Treg in leucocytes: 6.7%
  Percentage of CD8^+ T cells in leucocytes: 8.5%

## Reference: reference rhIL-2 purchased from Beijing Solarbio Science & Technology Co., Ltd., catalog number P00020
CTLL-2 cells
  STAT5 phosphorylation assay (CTLL-2 cells) EC50: 0.12 ng/mL
